Laboratory results as given in patent US20060100179A1, “Compositions and methods for use in targeting vascular destruction” (priority 2002, published 2006).

Test system: HDF (human neonatal dermal fibroblasts)
Assay: Cell survival by clonogenic assay (colony count or MTT) in HDF
Conditions: one-hour exposure; prodrug IC50 versus cytotoxic form IC50 in HDF
Experimental: Cell culture. Four commercially available human cell lines were grown in the indicated media below in 5% CO2, 80% humidity and 37EC: • 1. HL60 human leukemic cells, a pro-apoptotic cell line—cultured in RPMI 1640 fortified with 10% fetal calf serum. • 2. K562 human leukemic cells, an apoptotic-resistant cell line—cultured in RPMI 1640 fortified with 10% fetal calf serum. • 3. Human neonatal microvascular endothelial cells (HMVEC)—cultured in medium 131+microvascular growth supplement (MVGS)+attachment factor (AF)=500 ml+25 ml (AF is added 2-3 ml/T-25 flask; all reagents supplied by Cascade Biologics, Inc., Portland, Oreg.). • 4. Human neonatal dermal fibroblasts (HDF)—cultured in medium 106+low serum growth supplement (LSGS)=500 ml+10 ml (Cascade Biologics, Inc.).
Cell survival by clonogenic assay. […] After 5 days of incubation under the standard culture conditions stated above, colonies (>40 cells) were counted by an inverted light microscope or estimated by MTT assay. […]
Experiment 1. […] Clonogenic growth was recorded after 5 days incubation for all treatments. […]
The combretastatins are a family of naturally occurring tubulin binding agents comprising an A-,B-,C- and D- series of structures (U.S. Pat. Nos. 4,940,726; 4,996,237; 5,409,953; and 5,569,786). […] The compounds were added to microcultures in DMSO (i.e <0.5%) and toxicity was evaluated by MTT assay after 5-7 days in culture. […]

For Combretastatin A1 Piperazine PO4, the “protecting HDF from cytotoxicity by the phosphate prodrug form” value was “only marginally effective”.
